Reference: BindingDB's records for doi:10.1021/jm061471k (St. Jude Research Hospital, 2007)

Amino acid sequences for entries named in this document (tags omitted). A change or cut given only in a name is not applied to a line headed by its entry.
UniProt O00748: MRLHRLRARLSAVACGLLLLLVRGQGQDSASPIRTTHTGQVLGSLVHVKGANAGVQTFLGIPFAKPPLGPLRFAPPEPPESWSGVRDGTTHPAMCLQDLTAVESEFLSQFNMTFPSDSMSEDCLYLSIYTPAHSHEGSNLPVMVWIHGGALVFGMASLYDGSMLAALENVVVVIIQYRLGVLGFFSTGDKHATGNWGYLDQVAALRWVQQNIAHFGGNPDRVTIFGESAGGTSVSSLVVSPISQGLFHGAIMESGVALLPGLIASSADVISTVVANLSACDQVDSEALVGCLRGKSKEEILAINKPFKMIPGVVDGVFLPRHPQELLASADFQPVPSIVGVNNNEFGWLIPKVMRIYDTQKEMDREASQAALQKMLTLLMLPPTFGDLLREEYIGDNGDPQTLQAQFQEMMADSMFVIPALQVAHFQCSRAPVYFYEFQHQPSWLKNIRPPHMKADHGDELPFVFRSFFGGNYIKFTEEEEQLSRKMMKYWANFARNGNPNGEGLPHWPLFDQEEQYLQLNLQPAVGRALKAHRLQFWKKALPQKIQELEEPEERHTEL

Molecular target: CES2 (Homo sapiens, UniProt O00748)

Q: How did the Ki turn out when O=C1C(=O)N(CCN2C(=O)C(=O)c3ccccc32)c2ccccc21 [1-[2-(2,3-dioxo-2,3-dihydro-1H-indol-1-yl)ethyl]-2,3-dihydro-1H-indole-2,3-dione] was run?
A: 1.54 µM
